In ChEMBL document CHEMBL4196199, “Optimization of a Series of Mu Opioid Receptor (MOR) Agonists with High G Protein Signaling Bias” (2018):

How the values were obtained:
[1] = Stability in human hepatic microsomes assessed as half life at 1 uM by LC-MS/MS method; details: Liver
[2] = Stability in mouse hepatic microsomes assessed as half life at 1 uM by LC-MS/MS method; details: Liver

Structure (SMILES) | t1/2 [1] | t1/2 [2]
O=c1[nH]c2c(Cl)cccc2n1C1CCN(Cc2ccccc2Cl)CC1 | 8 min | 3 min
O=c1[nH]c2cc(Cl)c(Cl)cc2n1C1CCN(Cc2ccc(Br)cc2)CC1 | 233 min | 35 min
O=c1[nH]c2cc(Cl)c(Cl)cc2n1C1CCN(Cc2ccc(Br)cc2F)CC1 | 73 min | 31 min
O=c1[nH]c2ccc(Cl)cc2n1C1CCN(Cc2ccccc2Cl)CC1 | 17 min | 4 min
CC(c1ccc2c(c1)OCO2)N1CCC(n2c(=O)[nH]c3ccccc32)CC1 (stereo unspecified) | 16 min | 1 min
O=c1[nH]c2cc(Cl)ccc2n1C1CCN(Cc2ccc(Br)cc2F)CC1 | 84 min | 17 min
CC(c1ccc(OC(F)(F)F)cc1)N1CCC(n2c(=O)[nH]c3ccccc32)CC1 (stereo unspecified) | 120 min | 14 min
O=c1[nH]c2cc(Cl)ccc2n1C1CCN(Cc2ccccc2Cl)CC1 | 6 min | 3 min

Some compounds may have been tested in ways that are not shown here.
